## AlphaSeq binding of Ab-14 light chain variants to a spike HR2 peptide

Reference: Engelhart et al. 2022, doi:10.1038/s41597-022-01779-4. File: FLAb, binding data.

All variants were tested on one target, the spike HR2 peptide PDVDLGDISGINAS (SARS-CoV-2).

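The parent was found by panning a naive human phage display library on the peptide. Variants in AAYL50 differ from the parent at up to three CDR positions; double and triple changes were sampled at random. The scFvs were displayed on barcoded MATa yeast, the peptide on MATalpha yeast. Binding brings cells together so that they mate, and sequencing counts the barcode pairs among the diploids. Scores were corrected for input abundance and mapped to Kd with protein pairs of known affinity run in the same pool. Mating was done three times.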

Ab-14 is the parent antibody, in scFv form: VH, then a (GGGGS)3 linker, then VL. The heavy chain is unchanged in all variants.
VH: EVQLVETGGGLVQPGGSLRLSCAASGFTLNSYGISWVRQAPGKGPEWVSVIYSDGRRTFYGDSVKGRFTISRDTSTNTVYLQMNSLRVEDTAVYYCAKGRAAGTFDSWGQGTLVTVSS
VL: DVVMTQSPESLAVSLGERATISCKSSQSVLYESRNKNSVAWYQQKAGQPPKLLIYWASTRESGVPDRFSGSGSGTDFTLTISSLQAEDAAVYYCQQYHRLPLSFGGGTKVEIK

Each variant is given by its three light chain CDRs, as the data file delimits them; those of the parent are KSSQSVLYESRNKNSVA, WASTRES, QQYHRLPLS. Scale: log10 of Kd in nM, estimated from mating counts; low values are strong binders. A pair that was not seen in that replicate is written "ND"; this usually means weak binding, but a binder can also be missed.

With KSSQSVLYESTNKNSVA / WTSTRES / QQYHRLPRS the result was 0.74, 0.88, 0.90 (controls 1 of 9).
With KSSQSVLYESRNKGQVA / WPSTRES / QQYHRLPLS the result was ND, ND, ND (controls 6 of 9).
With KSSQSVLYESCNKNSVA / WASHRES / QDYHRLPLS the result was 2.37, 2.12, 2.42 (controls 8 of 9).
With KSSQSVLYESRNKKSVL / WCSTRES / QQYHRLPLS the result was ND, ND, ND (controls 1 of 9).
With KSSQSCLYESRNENSHA / WASTRES / QQYHRLPLS the result was ND, ND, ND (controls 1 of 9).
With KSSQSVMYESRNKNSVA / WASTRDS / QQSHRLPLS the result was 4.51, 4.13, 4.86 (controls 5 of 9).
With KSSQSVEYESRNKNSVA / WAFCRES / QQYHRLPLS the result was ND, ND, 5.64 (controls 3 of 9).
With KSSQSVHYESRNSNSVA / WASTREI / QQYHRLPLS the result was 0.30, 0.62, 0.55 (controls 0 of 9).
With KSSMSVLYESRNKNSVA / WASTRES / QQYHRLPHH the result was ND, ND, ND (controls 2 of 9).
With KSSQSWLYESRNKNSVA / WASTRES / QQYHRLQLE the result was ND, ND, ND (controls 0 of 9).
With NSSQSVLYESRDKFSVA / WASTRES / QQYHRLPLS the result was 1.48, 1.61, 2.03 (controls 0 of 9).
With KSSQSVLAECRNKNSVA / WASTRES / QQYHRLPIS the result was ND, ND, 4.34 (controls 2 of 9).
With KSSQSVLNESRNKNSVA / WASTRES / QQYRRLPLS the result was 1.07, 1.27, 0.99 (controls 1 of 9).
With NSSQSVLYESRMKASVA / WASTRES / QQYHRLPLS the result was 2.28, 2.24, 2.73 (controls 2 of 9).
With KSSQFVLYESRGKNSVA / WASTWES / QQYHRLPLS the result was 4.66, 4.43, ND (controls 0 of 9).
With KDSQSVLYESRNKNSVM / WASTRES / QQYHRLPLS the result was ND, ND, ND (controls 0 of 9).
With KSSQSVLYESRNKNSVA / WASTEQS / QQYNRLPLS the result was ND, ND, ND (controls 1 of 9).
With KSSQSVLYESRNKNHVA / WASTRES / QQEVRLPLS the result was ND, ND, ND (controls 0 of 9).
With KKSQSVLYESRNGNSVA / WASTREP / QQYHRLPLS the result was 1.60, 1.67, 1.92 (controls 1 of 9).
With KSSQSVLYESRNKNSGA / WAETMES / QQYHRLPLS the result was ND, ND, ND (controls 0 of 9).
With KSSKSVLYESPNKASVA / WASTRES / QQYHRLPLS the result was 1.14, 1.41, 1.49 (controls 2 of 9).
With KSSQSVDYESRNKNSVA / WAGTRKS / QQYHRLPLS the result was 2.66, 2.31, 2.60 (controls 3 of 9).
With KSSQSVLYEQRNKNSVA / CASTRES / QQYHYLPLS the result was 2.85, 2.03, 3.00 (controls 0 of 9).
With KSSQSVLYESRNKNSVA / WASTRES / QQYCRLMLP the result was 4.49, ND, ND (controls 1 of 9).
With KSSQSGLIESRNKNSVA / WASTRET / QQYHRLPLS the result was 0.34, 0.57, 0.67 (controls 0 of 9).
With KSSQSVLYESRNKNSVA / WAKTKEH / QQYHRLPLS the result was ND, ND, ND (controls 0 of 9).
With KSSQSVLYESRNKNSVA / WASTRES / QQLWRLPLS the result was ND, ND, ND (controls 0 of 9).
With KSSQSVLYESRNKQSVA / WASTRES / QQYHRLPLV the result was 1.58, 1.86, 2.02 (controls 2 of 9).
With KSSQSVLYESRNKNTVA / WASTRES / QQYRRLWLS the result was ND, ND, 4.52 (controls 2 of 9).
With KSSQSVLYEQRNKNSVA / WAHTRES / QQYHRLSLS the result was 1.07, 1.01, 1.04 (controls 1 of 9).

The closing 3 entries, repeated:

CDR-L1,CDR-L2,CDR-L3,"replicates, log10 nM",signal with controls
KSSQSVLYESRNKQSVA,WASTRES,QQYHRLPLV,"1.58, 1.86, 2.02",2/9
KSSQSVLYESRNKNTVA,WASTRES,QQYRRLWLS,"ND, ND, 4.52",2/9
KSSQSVLYEQRNKNSVA,WAHTRES,QQYHRLSLS,"1.07, 1.01, 1.04",1/9

For reference, the parent read 0.65 as the reference entry and 1.68 as a member of this library. Three control strains display no target. For library AAYL50, 18% of the pairings with them gave a signal, with a median of 4.19 and one signal in twenty below 2.99, so weak values seen in few replicates may be background. Also given: how often the same scFv was detected with the empty control strains.